{
  "sequences": {"note": "By UniProt entry, the sequences of proteins in these tests, tags left out.", "UniProt Q16236, whole entry": "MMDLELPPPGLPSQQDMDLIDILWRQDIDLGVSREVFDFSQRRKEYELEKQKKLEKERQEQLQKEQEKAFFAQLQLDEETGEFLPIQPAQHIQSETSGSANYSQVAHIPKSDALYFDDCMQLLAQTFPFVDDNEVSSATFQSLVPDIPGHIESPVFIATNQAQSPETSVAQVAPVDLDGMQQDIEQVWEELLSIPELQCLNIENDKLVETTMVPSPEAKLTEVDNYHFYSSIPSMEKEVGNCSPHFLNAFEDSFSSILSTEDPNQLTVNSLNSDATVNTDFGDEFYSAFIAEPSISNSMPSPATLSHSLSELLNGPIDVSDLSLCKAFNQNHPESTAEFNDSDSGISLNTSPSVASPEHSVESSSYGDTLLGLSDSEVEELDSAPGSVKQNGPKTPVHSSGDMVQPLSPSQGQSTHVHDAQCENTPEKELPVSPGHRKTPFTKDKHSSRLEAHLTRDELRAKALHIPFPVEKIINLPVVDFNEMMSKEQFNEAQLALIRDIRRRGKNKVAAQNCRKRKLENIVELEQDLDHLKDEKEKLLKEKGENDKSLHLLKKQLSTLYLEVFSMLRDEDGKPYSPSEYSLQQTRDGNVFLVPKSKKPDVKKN", "UniProt P40763, whole entry": "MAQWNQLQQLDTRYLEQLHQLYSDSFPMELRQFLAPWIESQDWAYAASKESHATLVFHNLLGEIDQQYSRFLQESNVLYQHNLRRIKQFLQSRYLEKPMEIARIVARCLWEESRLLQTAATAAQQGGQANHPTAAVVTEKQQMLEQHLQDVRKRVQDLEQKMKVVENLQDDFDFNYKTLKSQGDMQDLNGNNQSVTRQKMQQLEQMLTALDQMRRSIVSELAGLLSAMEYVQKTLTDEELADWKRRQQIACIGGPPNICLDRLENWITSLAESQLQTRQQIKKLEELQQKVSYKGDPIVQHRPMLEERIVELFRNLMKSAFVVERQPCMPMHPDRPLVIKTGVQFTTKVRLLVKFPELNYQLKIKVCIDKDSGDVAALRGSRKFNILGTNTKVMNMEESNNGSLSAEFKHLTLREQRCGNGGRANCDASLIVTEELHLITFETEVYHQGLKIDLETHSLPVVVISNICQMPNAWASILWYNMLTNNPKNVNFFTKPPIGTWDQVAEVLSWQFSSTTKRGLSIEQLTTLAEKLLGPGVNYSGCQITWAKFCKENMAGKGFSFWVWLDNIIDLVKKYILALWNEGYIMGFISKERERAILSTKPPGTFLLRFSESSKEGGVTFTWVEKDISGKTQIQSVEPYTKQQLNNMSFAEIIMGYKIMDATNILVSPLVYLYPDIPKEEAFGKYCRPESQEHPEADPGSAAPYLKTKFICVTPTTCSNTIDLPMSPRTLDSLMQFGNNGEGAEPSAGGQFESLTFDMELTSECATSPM", "UniProt P04637, whole entry": "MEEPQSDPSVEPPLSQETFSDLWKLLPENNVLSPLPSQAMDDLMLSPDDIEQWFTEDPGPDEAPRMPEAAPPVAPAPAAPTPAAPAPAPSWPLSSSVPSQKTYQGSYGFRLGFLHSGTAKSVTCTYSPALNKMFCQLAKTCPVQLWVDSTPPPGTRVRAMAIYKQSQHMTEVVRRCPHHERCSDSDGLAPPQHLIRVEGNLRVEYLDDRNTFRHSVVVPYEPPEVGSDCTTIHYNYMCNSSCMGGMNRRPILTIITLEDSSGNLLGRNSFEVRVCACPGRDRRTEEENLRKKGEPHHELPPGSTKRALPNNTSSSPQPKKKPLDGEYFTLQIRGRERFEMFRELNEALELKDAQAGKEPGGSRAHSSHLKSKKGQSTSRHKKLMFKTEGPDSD"},
  "source": "PubChem BioAssay (EPA / NIEHS)",
  "key": {"[1]": {"assay": "ATG_XTT_Cytotoxicity: Cytotoxicity Assessment in the Attagene TRANS-FACTORIAL HepG2 Assay (AID 2283584; active means hit-call score of the fitted dose curve at least 0.9, where 1 is the maximum)", "outline": "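Transfect HepG2 with GAL4-UAS reporter units, dose compound, incubate 24 h, then measure viable cell number by XTT. Fit concentration response against DMSO baseline.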"}, "[2]": {"read-out": "Pyruvate Dehydrogenase Kinase 4 (PDK4), PDK4 (gene 5166)", "assay": "LTEA_HepaRG_PDK4: Life Technologies and Expression Analysis (LTEA) Assay for Pyruvate Dehydrogenase Kinase 4 (PDK4) using HepaRG (AID 2283525)", "details": "actives raise or lower the signal; mRNA level, 48 h", "outline": "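HepaRG cells plated 48 h, then switched to serum-free induction medium and exposed in duplicate for 48 h to 8 half-log concentrations from 100 uM in 0.5% DMSO. PDK4 mRNA measured by qRT-PCR, normalized to ACTB, GAPDH and POLR2A; bidirectional fit versus DMSO.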"}, "[3]": {"read-out": "NAD(P)H dehydrogenase [quinone] 1 (NQO1), NQO1 (gene 1728)", "assay": "LTEA_HepaRG_NQO1: Life Technologies and Expression Analysis (LTEA) Assay for NAD(P)H dehydrogenase [quinone] 1 (NQO1) using HepaRG (AID 2283526)", "details": "actives raise or lower the signal; mRNA level, 48 h", "outline": "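Human HepaRG hepatic cells received chemicals for 48 h in serum-free induction medium with 0.5% DMSO, up to 100 uM. Expression was assessed by TaqMan qRT-PCR against housekeeping controls and fitted bidirectionally against DMSO.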"}, "[4]": {"read-out": "Nuclear factor erythroid 2-related factor 2 (Homo sapiens) (UniProt Q16236)", "assay": "LTEA_HepaRG_NFE2L2: Life Technologies and Expression Analysis (LTEA) Assay for Nuclear factor erythroid 2-related factor 2 (NFE2L2) Transcription Factor using HepaRG (AID 2283527)", "details": "actives raise or lower the signal; mRNA level, 48 h", "outline": "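Differentiated human HepaRG cells, serum-free induction medium, exposed 48 h in duplicate to eight half-log concentrations up to 100 uM in 0.5% DMSO. NFE2L2 mRNA by Fluidigm TaqMan qRT-PCR, normalised to ACTB, GAPDH, POLR2A; bidirectional change versus DMSO.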"}, "[5]": {"read-out": "succinate dehydrogenase complex iron sulfur subunit B (SDHB), SDHB (gene 6390)", "assay": "LTEA_HepaRG_SDHB: Life Technologies and Expression Analysis (LTEA) Assay for succinate dehydrogenase complex iron sulfur subunit B (SDHB) using HepaRG (AID 2283528)", "details": "actives raise or lower the signal; mRNA level, 48 h", "outline": "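A human HepaRG culture in serum-free induction medium received test chemicals for 48 h over an eight-point range capped at 100 uM. SDHB expression change was quantified by qRT-PCR.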"}, "[6]": {"read-out": "Signal transducer and activator of transcription 3 (Homo sapiens) (UniProt P40763)", "assay": "LTEA_HepaRG_STAT3: Life Technologies and Expression Analysis (LTEA) Assay for Signal transducer and activator of transcription (STAT3) using HepaRG (AID 2283529)", "details": "actives raise or lower the signal; mRNA level, 48 h", "outline": "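Differentiated HepaRG cells, serum-free induction medium, dosed 48 h in duplicate, 8 half-log concentrations from 100 uM in 0.5% DMSO. STAT3 mRNA by qRT-PCR, normalised to ACTB, GAPDH, POLR2A; bidirectional fit versus DMSO.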"}, "[7]": {"read-out": "solute carrier (SLCO1B1), SLCO1B1 (gene 10599)", "assay": "LTEA_HepaRG_SLCO1B1: Life Technologies and Expression Analysis (LTEA) Assay for solute carrier (SLCO1B1) using HepaRG (AID 2283530)", "details": "actives raise or lower the signal; mRNA level, 48 h", "outline": "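Gain or loss of SLCO1B1 mRNA is fitted against the 0.5% DMSO vehicle in human HepaRG liver cells treated 48 h at up to 100 uM in half-log steps. Expression comes from qRT-PCR normalized to endogenous controls.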"}, "[8]": {"read-out": "sulfotransferase 2A1 (SULT2A1), SULT2A1 (gene 6822)", "assay": "LTEA_HepaRG_SULT2A1: Life Technologies and Expression Analysis (LTEA) Assay for sulfotransferase 2A1 (SULT2A1) using HepaRG (AID 2283531)", "details": "actives raise or lower the signal; mRNA level, 48 h", "outline": "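Cells were plated and cultured 48 h, switched to serum-free induction medium, then dosed in duplicate for 48 h (8 concentrations, max 100 uM). RNA was isolated and SULT2A1 expression measured by qRT-PCR; gain or loss of signal fitted relative to DMSO.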"}, "[9]": {"read-out": "Transforming Growth Factor (TGFA), TGFA (gene 7039)", "assay": "LTEA_HepaRG_TGFA: Life Technologies and Expression Analysis (LTEA) Assay for Transforming Growth Factor (TGFA) using HepaRG (AID 2283532)", "details": "actives raise or lower the signal; mRNA level, 48 h", "outline": "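Differentiated HepaRG cells exposed 48 hours in serum-free induction medium, 0.5% DMSO vehicle, 8-point half-log series from 100 uM, in duplicate. TGFA mRNA by TaqMan qRT-PCR, normalised to ACTB, GAPDH, POLR2A; bidirectional fit versus DMSO.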"}, "[10]": {"read-out": "Transforming Growth Factor (TGFB1), TGFB1 (gene 7040)", "assay": "LTEA_HepaRG_TGFB1: Life Technologies and Expression Analysis (LTEA) Assay for Transforming Growth Factor (TGFB1) Transporter using HepaRG (AID 2283533)", "details": "actives raise or lower the signal; mRNA level, 48 h", "outline": "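Expression change of TGFB1 in human HepaRG cells is measured after a 48 h chemical exposure, up to 100 uM in 0.5% DMSO vehicle. Curves are fitted in both directions relative to the DMSO baseline.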"}, "TIMP1, TIMP1 (gene 7076)": {"read-out": "TIMP1, TIMP1 (gene 7076)", "assay": "LTEA_HepaRG_TIMP1: Life Technologies and Expression Analysis (LTEA) Assay for TIMP1 using HepaRG (AID 2283534)", "details": "actives raise or lower the signal; mRNA level, 48 h", "outline": "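We dosed human liver HepaRG cultures for 48 hours with up to 100 uM test chemical and measured TIMP1 expression by qRT-PCR. Activity in either direction is fitted relative to the 0.5% DMSO vehicle.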"}, "[11]": {"read-out": "Tumor necrosis factor receptor 1 (TNFRSF1A), TNFRSF1A (gene 7132)", "assay": "LTEA_HepaRG_TNFRSF1A: Life Technologies and Expression Analysis (LTEA) Assay for Tumor necrosis factor receptor 1 (TNFRSF1A) using HepaRG (AID 2283535)", "details": "actives raise or lower the signal; mRNA level, 48 h", "outline": "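Expression of TNFRSF1A in human HepaRG liver cells was measured by qRT-PCR 48 h after chemical dosing (maximum 100 uM). Bidirectional curve fitting used 0.5% DMSO as baseline.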"}, "[12]": {"read-out": "Thyroid Hormone Responsive (THRSP), THRSP (gene 7069)", "assay": "LTEA_HepaRG_THRSP: Life Technologies and Expression Analysis (LTEA) Assay for Thyroid Hormone Responsive (THRSP) using HepaRG (AID 2283536)", "details": "actives raise or lower the signal; mRNA level, 48 h", "outline": "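Differentiated HepaRG cells treated 48 h in serum-free induction medium with 8 half-log concentrations up to 100 uM (0.5% DMSO), duplicates. THRSP mRNA by TaqMan qRT-PCR normalised to ACTB, GAPDH, POLR2A; bidirectional fit versus DMSO.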"}, "[13]": {"read-out": "Cellular tumor antigen p53 (Homo sapiens) (UniProt P04637)", "assay": "LTEA_HepaRG_TP53: Life Technologies and Expression Analysis (LTEA) Assay for Tumor Protein P53 (TP53) using HepaRG (AID 2283537)", "details": "actives raise or lower the signal; mRNA level, 48 h", "outline": "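Gain or loss of TP53 mRNA signal is scored relative to 0.5% DMSO after 48 h chemical treatment of HepaRG liver cells, tested in duplicate at eight half-log concentrations up to 100 uM.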"}, "[14]": {"read-out": "UDP glucuronosyltransferase (UGT1A1), UGT1A1 (gene 54658)", "assay": "LTEA_HepaRG_UGT1A1: Life Technologies and Expression Analysis (LTEA) Assay for UDP glucuronosyltransferase (UGT1A1) using HepaRG (AID 2283538)", "details": "actives raise or lower the signal; mRNA level, 48 h", "outline": "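Human liver HepaRG cultures receive test chemical for 48 h, up to 100 uM in 0.5% DMSO, with phenobarbital induction controls. UGT1A1 mRNA is measured by qRT-PCR and normalized to ACTB, GAPDH and POLR2A.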"}, "[15]": {"read-out": "UDP glucuronosyltransferase (UGT1A6), UGT1A6 (gene 54578)", "assay": "LTEA_HepaRG_UGT1A6: Life Technologies and Expression Analysis (LTEA) Assay for UDP glucuronosyltransferase (UGT1A6) using HepaRG (AID 2283539)", "details": "actives raise or lower the signal; mRNA level, 48 h", "outline": "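Endpoint is UGT1A6 transcript induction or loss in a human liver cell line, quantified by TaqMan qRT-PCR 48 h after dosing. Concentrations ran from 100 uM downward in half-log steps in 0.5% DMSO; activity was fitted in both directions versus vehicle.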"}, "[16]": {"read-out": "X-box binding protein 1 (XBP1), XBP1 (gene 7494)", "assay": "LTEA_HepaRG_XBP1: Life Technologies and Expression Analysis (LTEA) Assay for X-box binding protein 1 (XBP1) using HepaRG (AID 2283540)", "details": "actives raise or lower the signal; mRNA level, 48 h", "outline": "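Human HepaRG monolayers receive test chemical for 48 h across an eight-point half-log series starting at 100 uM. XBP1 mRNA gain or loss is scored against DMSO by qRT-PCR.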"}, "[17]": {"assay": "LTEA_HepaRG_LDH_cytotoxicity: Cytotoxicity Assessment in the Life Technologies and Expression Analysis (LTEA) Assay (AID 2283563; active means hit-call score of the fitted dose curve at least 0.9, where 1 is the maximum)", "outline": "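Human HepaRG hepatic cells are treated with test chemicals for 48 h at up to 100 uM in 0.5% DMSO. Cytotoxicity is scored from medium LDH against the vehicle control.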"}, "[18]": {"assay": "Tanguay_ZF_120hpf_MORT_legacy: (Legacy) Oregon State University Tanguay Lab 120 Hour Post-fertilization zebrafish Assay for Mortality (AID 2283633; active means hit-call score of the fitted dose curve at least 0.9, where 1 is the maximum;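 further: fitted as increase in binary mortality versus DMSO negative control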)", "outline": "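Mortality endpoint from a multiplexed whole-embryo zebrafish screen. Dechorionated wild-type embryos received compound at 6 hpf and remained under static exposure at 28C until 120 hpf, with death noted as a present/absent call.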"}, "[19]": {"assay": "Tanguay_ZF_120hpf_YSE_legacy: (Legacy) Oregon State University Tanguay Lab 120 Hour Post-fertilization zebrafish Assay for Yolk Sac Edema (AID 2283634; active means hit-call score of the fitted dose curve at least 0.9, where 1 is the maximum)", "outline": "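Readout: presence or absence of yolk sac edema at 120 hpf, fitted upward against DMSO controls. Exposure ran statically from 6 hpf in dechorionated embryos kept at 28C.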"}},
  "note": "This is a selection; strong and weak results do not stand in their true shares. Inconclusive results are not listed. Activity calls are given as the source filed them. How the source made its calls, unless noted: active means hit-call score of the fitted dose curve at least 0.9, where 1 is the maximum; inactive means score below 0.9.",
  "data": [
    {"smiles": "CC(C)OP(OC(C)C)OC(C)C", "values": [
      {"measurement": "outcome", "setting": "[1]", "result": "inactive"}
    ]},
    {"smiles": "CCOP(=O)(Cl)Cl", "values": [
      {"measurement": "outcome", "setting": "[1]", "result": "inactive"}
    ]},
    {"smiles": "O=[N+]([O-])c1ccccc1[N+](=O)[O-]", "values": [
      {"measurement": "outcome", "setting": "[2]", "result": "inactive"},
      {"measurement": "outcome", "setting": "[3]", "result": "inactive"},
      {"measurement": "outcome", "setting": "[4]", "result": "inactive"},
      {"measurement": "outcome", "setting": "[5]", "result": "inactive"},
      {"measurement": "outcome", "setting": "[6]", "result": "inactive"},
      {"measurement": "outcome", "setting": "[7]", "result": "inactive"},
      {"measurement": "outcome", "setting": "[8]", "result": "inactive"},
      {"measurement": "outcome", "setting": "[9]", "result": "inactive"},
      {"measurement": "outcome", "setting": "[10]", "result": "inactive"},
      {"measurement": "outcome", "setting": "TIMP1, TIMP1 (gene 7076)", "result": "inactive"},
      {"measurement": "outcome", "setting": "[11]", "result": "inactive"},
      {"measurement": "outcome", "setting": "[12]", "result": "inactive"},
      {"measurement": "outcome", "setting": "[13]", "result": "inactive"},
      {"measurement": "outcome", "setting": "[14]", "result": "inactive"},
      {"measurement": "outcome", "setting": "[15]", "result": "inactive"},
      {"measurement": "outcome", "setting": "[16]", "result": "inactive"},
      {"measurement": "outcome", "setting": "[17]", "result": "inactive"},
      {"measurement": "outcome", "setting": "[1]", "result": "inactive"},
      {"measurement": "AC50", "setting": "[18]", "result": "active: 14.3 µM"},
      {"measurement": "outcome", "setting": "[19]", "result": "inactive"}
    ]},
    {"smiles": "ClCCNCCCl", "values": [
      {"measurement": "outcome", "setting": "[1]", "result": "inactive"}
    ]}
  ]
}
